Test system: human telomerase (extract of A549 cells), oligonucleotide TSG4
Assay: Antitelomerase activity by the TRAP-G4 assay
Assay type: biochemical
Settings: IC50 Taq/IC50 TRAP-G4 ratio
Description: The extract is stored at -80° C.

Row | SMILES | Inhibition of telomerase Selectivity factor
1 | C[n+]1cccc2cc(NC(=O)c3cccc(C(=O)NCC[N+]4(C)CCCCC4)n3)ccc21.[I-].[I-] [Example 12, 2-[(1-methylquinolinio-6-yl)amido]-6-[2(-1-methylpiperidinio-1-yl)ethylamido]-2,6-pyridinedicarboxylic acid diiodide] | >66
2 | C[n+]1cccc2cc(NC(=O)c3cccc(C(=O)Nc4cc5ccccc5[n+](C)c4)n3)ccc21.[I-].[I-] [Example 9, 2-[(1-methylquinolinio-6-yl)amido]-6-[(1-methylquinolinio-3-yl)amido]-2,6-pyridinedicarboxylic acid iodide] | 150
3 | C[n+]1cccc2cc(NC(=O)c3ccnc(C(=O)Nc4ccc5c(ccc[n+]5C)c4)c3)ccc21.[I-].[I-] [Example 8, bis[(1-methylquinolin-6-yl)amido]-2,4-pyridinedicarboxylic acid diiodide] | >3.3
4 | Cc1cc(=N)c2cc(NC(=O)c3cccc(C(=O)Nc4ccc5c(ccc[n+]5C)c4)n3)ccc2[nH]1.[I-] [Example 6, 2-[(1-methylquinolinio-6-yl)amido]-6-[(4-aminoquinaldinio-6-yl)amido]-2,6-pyridinedicarboxylic acid iodide] | 10
5 | C[n+]1cccc2cc(NC(=O)c3cncc(C(=O)Nc4ccc5c(ccc[n+]5C)c4)n3)ccc21.[I-].[I-] [Example 3, bis[(1-methylquinolinio-6-yl)amido]-2,6-pyrazinedicarboxylic acid diiodide] | 40
6 | C[n+]1cccc2cc(NC(=O)c3cccc(C(=O)Nc4ccc5c(ccc[n+]5C)c4)n3)ccc21.[I-].[I-] [Example 1, bis[(1-methylquinolinio-6-yl)amido]-2,6-pyridinedicarboxylic acid diiodide] | 33
7 | Cc1cc(N(C)C)c2cc(NC(=O)c3cccc(C(=O)Nc4ccc5c(ccc[n+]5C)c4)n3)ccc2[n+]1C.[I-].[I-] [Example 2, 2-[(1-methylquinolinio-6-yl)amido]-6-[(4-dimethylamino-1-methylquinaldinio-6-yl)amido]-2,6-pyridinedicarboxylic acid diiodide] | 70
8 | C[n+]1cccc2cc(NC(=O)c3cccc(C(=O)Nc4ccc5c(ccc[n+]5C)c4)c3)ccc21.[I-].[I-] [Example 4, bis[(1-methylquinolinio-6-yl)amido]-1,3-benzenedicarboxylic acid diiodide] | >10
9 | C[n+]1cc(NC(=O)c2cccc(C(=O)Nc3cc4ccccc4[n+](C)c3)n2)cc2ccccc21.[I-].[I-] [Example 11, bis[(1-methylquinolinio-3-yl)amido]-2,6-pyridinedicarboxylic acid diiodide] | 116
10 | Cc1ccc2cc(NC(=O)c3cccc(C(=O)Nc4ccc5c(ccc(C)[n+]5C)c4)c3)ccc2[n+]1C.[I-].[I-] [Example 7, bis[(1-methylquinaldinio-6-yl)amido]-2,6-benzenedicarboxylic acid diiodide] | >3.3
11 | Cc1ccc2cc(NC(=O)c3cccc(C(=O)Nc4ccc5c(ccc(C)[n+]5C)c4)n3)ccc2[n+]1C.[I-].[I-] [Example 5, bis[(1-methylquinaldinio-6-yl)amido]-2,6-pyridinedicarboxylic acid diiodide] | 35
12 | C[n+]1cccc2cc(NC(=O)c3cccc(C(=O)Nc4cccc5c4ccc[n+]5C)n3)ccc21.[I-].[I-] [Example 10, 2-[(1-methylquinolinio-6-yl)amido]-6-[(1-methylquinolinio-5-yl)amido]-2,6-pyridinedicarboxylic acid iodide] | >10
